From paper PMC3429157

Amino acid sequences for entries named in this document (tags omitted). Residues count along the entry.
UniProt P54725, 315-361: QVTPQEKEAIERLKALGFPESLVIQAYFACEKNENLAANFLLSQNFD

What was measured:
[1] = target: UBA2 domain of hHR23a (RAD23A) (UniProt P54725); test: NMR 1H-15N HSQC chemical-shift perturbation titration; settings: pH 4.5, 23°C, no added salt stated (50 mM NaOAc)
[2] = target: hHR23a UBA2 (Homo sapiens) (UniProt P54725); test: NMR

Kd [1]	Kd [2]	Substance
215 ± 35 µM	–	Ubiquitin (monoUb) not stated (presumably none)
–	1400 nM	K48-linked diubiquitin (proximal Ub) (from UniProt P0CG47)
